Source: the NIST ThermoML archive (doi:10.1016/j.fluid.2013.11.031)

Assay: xn = mol fraction of the nth substance listed
Conditions: Liquid, Vibrating tube method

CCCCOCCCC [dibutyl ether] + CCCO
mass density [kg/m3]
Conditions | x1 = 0.15 | x1 = 0.325 | x1 = 0.5 | x1 = 0.675 | x1 = 0.85
293.15 K, 100 kPa | 794.5 | 786.5 | 780.2 | 775.5 | 771.5
293.15 K, 10000 kPa | 802.3 | 794.3 | 788.3 | 783.6 | 779.7
293.15 K, 20000 kPa | 809.2 | 801.5 | 795.7 | 790.9 | 787.2
293.15 K, 30000 kPa | 815.7 | 808.1 | 802.4 | 797.7 | 794
293.15 K, 40000 kPa | 821.7 | 814.3 | 808.7 | 804.1 | 800.4
293.15 K, 50000 kPa | 827.4 | 820 | 814.5 | 810 | 806.4
293.15 K, 60000 kPa | 832.7 | 825.3 | 820 | 815.5 | 811.9
293.15 K, 70000 kPa | 837.8 | 830.5 | 825.2 | 820.7 | 817.2
293.15 K, 80000 kPa | 842.6 | 835.4 | 830.2 | 825.7 | 822.1
293.15 K, 90000 kPa | 847.2 | 840 | 834.8 | 830.4 | 826.9
293.15 K, 100000 kPa | 851.7 | 844.4 | 839.2 | 834.8 | 831.5
293.15 K, 110000 kPa | 855.9 | 848.7 | 843.5 | 839.2 | 835.8
293.15 K, 120000 kPa | 859.9 | 852.8 | 847.6 | 843.3 | 840
293.15 K, 130000 kPa | 863.8 | 856.7 | 851.5 | 847.3 | 844
293.15 K, 140000 kPa | 867.6 | 860.5 | 855.4 | 851.2 | 847.9
313.15 K, 100 kPa | 777.8 | 769.4 | 762.9 | 757.9 | 753.7
313.15 K, 10000 kPa | 786.5 | 778.1 | 771.9 | 767.2 | 763
313.15 K, 20000 kPa | 794.2 | 786.2 | 780.1 | 775.5 | 771.4
313.15 K, 30000 kPa | 801.4 | 793.5 | 787.5 | 783 | 779
313.15 K, 40000 kPa | 807.9 | 800.1 | 794.3 | 789.8 | 786
313.15 K, 50000 kPa | 814 | 806.3 | 800.6 | 796.1 | 792.4
313.15 K, 60000 kPa | 819.7 | 812.1 | 806.5 | 802 | 798.4
313.15 K, 70000 kPa | 825.1 | 817.6 | 812.1 | 807.6 | 804
313.15 K, 80000 kPa | 830.2 | 822.8 | 817.3 | 812.9 | 809.4
313.15 K, 90000 kPa | 835 | 827.7 | 822.3 | 817.8 | 814.4
313.15 K, 100000 kPa | 839.9 | 832.7 | 827.2 | 822.8 | 819.4
313.15 K, 110000 kPa | 844.3 | 837.2 | 831.8 | 827.6 | 824.1
313.15 K, 120000 kPa | 848.7 | 841.4 | 836.3 | 832.1 | 828.6
313.15 K, 130000 kPa | 852.8 | 845.7 | 840.4 | 836.3 | 832.8
313.15 K, 140000 kPa | 856.8 | 849.7 | 844.4 | 840.4 | 836.9
333.15 K, 100 kPa | 760.7 | 751.7 | 744.9 | 740.2 | 735.9
333.15 K, 10000 kPa | 770.5 | 761.7 | 755.3 | 750.7 | 746.6
333.15 K, 20000 kPa | 779.1 | 770.7 | 764.5 | 760 | 756
333.15 K, 30000 kPa | 786.6 | 778.5 | 772.5 | 768.1 | 764.2
333.15 K, 40000 kPa | 793.7 | 785.7 | 779.8 | 775.5 | 771.8
333.15 K, 50000 kPa | 800.3 | 792.4 | 786.7 | 782.5 | 778.8
333.15 K, 60000 kPa | 806.4 | 798.7 | 793.1 | 788.9 | 785.2
333.15 K, 70000 kPa | 812.2 | 804.6 | 799.1 | 794.9 | 791.3
333.15 K, 80000 kPa | 817.8 | 810.3 | 804.9 | 800.8 | 797.2
333.15 K, 90000 kPa | 823 | 815.6 | 810.2 | 806.1 | 802.5
333.15 K, 100000 kPa | 828.1 | 820.7 | 815.5 | 811.5 | 807.9
333.15 K, 110000 kPa | 832.8 | 825.5 | 820.3 | 816.2 | 812.7
333.15 K, 120000 kPa | 837.3 | 830.1 | 825 | 820.9 | 817.4
333.15 K, 130000 kPa | 841.5 | 834.4 | 829.3 | 825.2 | 821.7
333.15 K, 140000 kPa | 845.6 | 838.5 | 833.5 | 829.4 | 825.9
353.15 K, 100 kPa | 741.7 | 732.4 | 725.7 | 720.9 | 717.4
353.15 K, 10000 kPa | 752.6 | 743.8 | 737.6 | 732.8 | 729.4
353.15 K, 20000 kPa | 762.4 | 753.9 | 748 | 743.4 | 740
353.15 K, 30000 kPa | 771.1 | 762.9 | 757.2 | 752.8 | 749.4
353.15 K, 40000 kPa | 779 | 771.1 | 765.4 | 761.1 | 757.8
353.15 K, 50000 kPa | 786.3 | 778.5 | 773.1 | 768.7 | 765.6
353.15 K, 60000 kPa | 792.9 | 785.2 | 779.9 | 775.7 | 772.5
353.15 K, 70000 kPa | 799.3 | 791.7 | 786.5 | 782.3 | 779.1
353.15 K, 80000 kPa | 805 | 797.6 | 792.4 | 788.2 | 785.1
353.15 K, 90000 kPa | 810.5 | 803.1 | 798 | 793.9 | 790.8
353.15 K, 100000 kPa | 815.6 | 808.3 | 803.3 | 799.2 | 796.1
353.15 K, 110000 kPa | 820.7 | 813.4 | 808.4 | 804.4 | 801.4
353.15 K, 120000 kPa | 825.4 | 818.2 | 813.2 | 809.3 | 806.3
353.15 K, 130000 kPa | 829.9 | 822.8 | 817.8 | 813.9 | 810.9
353.15 K, 140000 kPa | 834.3 | 827.2 | 822.3 | 818.3 | 815.4
